Paper PMC5807507, “Crystal structures of a bacterial dipeptidyl peptidase IV reveal a novel substrate recognition mechanism distinct from that of mammalian orthologues” (Scientific Reports, 2018)

Amino acid sequences for entries named in this document (tags omitted). Residues count along the entry.
UniProt P27487, 39-766: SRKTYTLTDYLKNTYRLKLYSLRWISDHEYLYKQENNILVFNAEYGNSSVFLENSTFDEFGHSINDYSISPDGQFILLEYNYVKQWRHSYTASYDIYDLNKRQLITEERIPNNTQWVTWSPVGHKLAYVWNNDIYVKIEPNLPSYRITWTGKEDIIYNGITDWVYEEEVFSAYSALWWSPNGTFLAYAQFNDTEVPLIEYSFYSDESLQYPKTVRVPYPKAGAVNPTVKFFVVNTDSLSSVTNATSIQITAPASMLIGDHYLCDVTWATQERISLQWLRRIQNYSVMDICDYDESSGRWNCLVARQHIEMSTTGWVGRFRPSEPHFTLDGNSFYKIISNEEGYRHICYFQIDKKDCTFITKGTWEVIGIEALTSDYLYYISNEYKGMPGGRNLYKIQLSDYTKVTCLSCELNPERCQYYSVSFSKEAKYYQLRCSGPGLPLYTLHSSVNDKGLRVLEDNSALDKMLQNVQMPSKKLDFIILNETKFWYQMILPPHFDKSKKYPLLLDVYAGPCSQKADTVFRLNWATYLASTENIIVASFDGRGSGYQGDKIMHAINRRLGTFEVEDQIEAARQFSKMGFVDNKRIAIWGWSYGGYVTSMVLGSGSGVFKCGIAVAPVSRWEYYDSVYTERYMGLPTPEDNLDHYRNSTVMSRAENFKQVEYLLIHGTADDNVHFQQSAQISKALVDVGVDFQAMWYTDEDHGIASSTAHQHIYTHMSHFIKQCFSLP

Legend:
Human DPP IV [1] = biological target: T1, Human DPP IV (Homo sapiens, UniProt P27487); test: biochemical
T1 construct: gene DPP4

Human DPP IV [2] = biological target: T1, Human DPP IV; test: Gly-Pro-MCA fluorescence hydrolysis inhibition; Ki by Cheng-Prusoff

SMILES: Cc1cc2ncc(C(=O)NCC(C)(C)NCC(=O)N3CCC[C@H]3C#N)cn2n1 [Anagliptin]
- IC50 (Human DPP IV [1]): 38.6 ± 2.2 nM
- Ki (Human DPP IV [2]): 10.5 ± 0.6 nM
